The source of these data is publication PMC4621360.

This assay concerns the target Kap95 (S. cerevisiae) (UniProt Q06142). The assay can be described thus: NMR titration; 15N R2 titration at 500 MHz in buffer A (20 mM HEPES, 150 mM KCl, 2 mM MgCl2, pH 6.5); Kap95 fixed at 20 μM, 15N FSFG-K varied from 12.5 to 1200 μM; apparent Kd, taken as a lower bound.

As to “FSFG-K, M-Nsp1(274–397)-LEHHHHHH (domain or fragment)”, the apparent Kd for each FSFG site is 216 µM, the sequence-specific apparent Kd (G of FSFG) came to 17 µM, the sequence-specific apparent Kd (S of FSFG) stood at 55 µM and the sequence-specific apparent Kd (first F of FSFG) came to 31 µM. Also, the sequence-specific apparent Kd (second F of FSFG) worked out at 44 µM.
